Chains of the proteins cited; added tags and fusions are not shown. Lines headed by an entry give the natural chain unless they say otherwise; changes in a name come on top.
UniProt P43116: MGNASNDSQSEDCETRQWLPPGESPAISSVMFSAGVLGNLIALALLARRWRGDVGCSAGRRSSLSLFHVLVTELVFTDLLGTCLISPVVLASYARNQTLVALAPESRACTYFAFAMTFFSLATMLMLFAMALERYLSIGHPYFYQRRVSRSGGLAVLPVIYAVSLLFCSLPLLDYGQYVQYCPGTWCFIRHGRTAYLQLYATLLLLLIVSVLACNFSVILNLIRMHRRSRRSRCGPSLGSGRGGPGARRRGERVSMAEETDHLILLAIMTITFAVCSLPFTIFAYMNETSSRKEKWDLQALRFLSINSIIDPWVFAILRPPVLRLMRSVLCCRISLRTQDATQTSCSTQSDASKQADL

In US12042503B2, “Compositions and methods for treating coronavirus infections” (priority 2020, dated 2024):

Biological target: T1, EP2 receptor (PTGER2) (Homo sapiens, UniProt P43116)
T1 construct: host or cells: PathHunter beta-arrestin cell line
Test: PathHunter beta-arrestin cell-based prostanoid receptor assay, EP2
Details: Run 1, GP1681 starting concentration 4 uM; β-Arrestin
Description: DiscoverX cell-based ligand binding assays were performed in the PathHunter beta-arrestin (EP1, EP2, EP3, EP4, FP, IP, and TP receptors) or cAMP Hunter™ (DP receptor) cell lines.
Receptor binding studies were performed in either the PathHunter® b-Arrestin (EP1, EP2, EP3, EP4, FP, IP, and TP receptors) or cAMP Hunter™ (DP receptor) cell lines. A 10 mM working stock of GP1681 was created in 1×PBS, pH 7.4. All assays were carried out in duplicate with 10 individual concentrations of GP1681. A three-fold dilution series of GP1681 was established for the initial or pilot experiment with a starting concentration of 4 uM (starting concentration was chosen based on previous Gemmus Pharma preclinical experimental results).
GP1681 was incubated with cells lines at either 37° C. or room temperature, for 90-180 minutes (temperatures and incubation times are all dependent on established optimized procedures for each receptor cell line) after which cell wells were processed and signal production detected. […] Receptor binding activity was analyzed using CBIS data analysis suite (ChemInnovation, CA). The percentage of activity was calculated using the following formula: % Activity=100%×(mean RLU of test sample−mean RLU of vehicle control)/(mean MAX control ligand−mean RLU of vehicle control). Dose curves were performed and EC50 values determined.

SMILES: CCCCC[C@H](O)/C=C/[C@H]1[C@H](O)CC(=O)[C@@H]1C/C=C\CCCC(=O)O [PGE2, Prostaglandin E2, reference compound]
- EC50: 1.24 µM
